The target of the experiment is T1, human SMS2 (Homo sapiens, UniProt Q8NHU3).
T1 sequence (Q8NHU3 1-365): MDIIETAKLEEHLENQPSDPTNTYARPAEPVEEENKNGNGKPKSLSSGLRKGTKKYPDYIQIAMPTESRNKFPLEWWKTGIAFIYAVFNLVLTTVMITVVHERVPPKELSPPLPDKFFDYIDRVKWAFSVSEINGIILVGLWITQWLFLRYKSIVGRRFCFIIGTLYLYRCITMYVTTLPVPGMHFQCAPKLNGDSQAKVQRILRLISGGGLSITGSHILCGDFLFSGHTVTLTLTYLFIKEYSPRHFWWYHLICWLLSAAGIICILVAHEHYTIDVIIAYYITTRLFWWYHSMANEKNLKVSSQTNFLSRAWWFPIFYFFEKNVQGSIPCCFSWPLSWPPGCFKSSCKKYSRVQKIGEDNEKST
As to the kind of experiment: purified SMS enzyme inhibitory assay in vitro. Type of experiment: biochemical.

Among the data in paper PMC11873635 (Acta Pharmaceutica Sinica. B, 2024) are IC50 values, retold here.

One may read the IC50 as the concentration at which inhibition is half-maximal. The low end stands for greater potency in that assay, the high end for weaker potency in that assay. As for `O=C(Nc1cccnc1)c1sccc1OCc1cc(F)ccc1Cl` [14d], inhibition was half-maximal at 70 nM (IC50).
